{"sequences": {"note": "By UniProt entry, the sequences of proteins in these tests, tags left out.", "UniProt Q01668, whole entry": "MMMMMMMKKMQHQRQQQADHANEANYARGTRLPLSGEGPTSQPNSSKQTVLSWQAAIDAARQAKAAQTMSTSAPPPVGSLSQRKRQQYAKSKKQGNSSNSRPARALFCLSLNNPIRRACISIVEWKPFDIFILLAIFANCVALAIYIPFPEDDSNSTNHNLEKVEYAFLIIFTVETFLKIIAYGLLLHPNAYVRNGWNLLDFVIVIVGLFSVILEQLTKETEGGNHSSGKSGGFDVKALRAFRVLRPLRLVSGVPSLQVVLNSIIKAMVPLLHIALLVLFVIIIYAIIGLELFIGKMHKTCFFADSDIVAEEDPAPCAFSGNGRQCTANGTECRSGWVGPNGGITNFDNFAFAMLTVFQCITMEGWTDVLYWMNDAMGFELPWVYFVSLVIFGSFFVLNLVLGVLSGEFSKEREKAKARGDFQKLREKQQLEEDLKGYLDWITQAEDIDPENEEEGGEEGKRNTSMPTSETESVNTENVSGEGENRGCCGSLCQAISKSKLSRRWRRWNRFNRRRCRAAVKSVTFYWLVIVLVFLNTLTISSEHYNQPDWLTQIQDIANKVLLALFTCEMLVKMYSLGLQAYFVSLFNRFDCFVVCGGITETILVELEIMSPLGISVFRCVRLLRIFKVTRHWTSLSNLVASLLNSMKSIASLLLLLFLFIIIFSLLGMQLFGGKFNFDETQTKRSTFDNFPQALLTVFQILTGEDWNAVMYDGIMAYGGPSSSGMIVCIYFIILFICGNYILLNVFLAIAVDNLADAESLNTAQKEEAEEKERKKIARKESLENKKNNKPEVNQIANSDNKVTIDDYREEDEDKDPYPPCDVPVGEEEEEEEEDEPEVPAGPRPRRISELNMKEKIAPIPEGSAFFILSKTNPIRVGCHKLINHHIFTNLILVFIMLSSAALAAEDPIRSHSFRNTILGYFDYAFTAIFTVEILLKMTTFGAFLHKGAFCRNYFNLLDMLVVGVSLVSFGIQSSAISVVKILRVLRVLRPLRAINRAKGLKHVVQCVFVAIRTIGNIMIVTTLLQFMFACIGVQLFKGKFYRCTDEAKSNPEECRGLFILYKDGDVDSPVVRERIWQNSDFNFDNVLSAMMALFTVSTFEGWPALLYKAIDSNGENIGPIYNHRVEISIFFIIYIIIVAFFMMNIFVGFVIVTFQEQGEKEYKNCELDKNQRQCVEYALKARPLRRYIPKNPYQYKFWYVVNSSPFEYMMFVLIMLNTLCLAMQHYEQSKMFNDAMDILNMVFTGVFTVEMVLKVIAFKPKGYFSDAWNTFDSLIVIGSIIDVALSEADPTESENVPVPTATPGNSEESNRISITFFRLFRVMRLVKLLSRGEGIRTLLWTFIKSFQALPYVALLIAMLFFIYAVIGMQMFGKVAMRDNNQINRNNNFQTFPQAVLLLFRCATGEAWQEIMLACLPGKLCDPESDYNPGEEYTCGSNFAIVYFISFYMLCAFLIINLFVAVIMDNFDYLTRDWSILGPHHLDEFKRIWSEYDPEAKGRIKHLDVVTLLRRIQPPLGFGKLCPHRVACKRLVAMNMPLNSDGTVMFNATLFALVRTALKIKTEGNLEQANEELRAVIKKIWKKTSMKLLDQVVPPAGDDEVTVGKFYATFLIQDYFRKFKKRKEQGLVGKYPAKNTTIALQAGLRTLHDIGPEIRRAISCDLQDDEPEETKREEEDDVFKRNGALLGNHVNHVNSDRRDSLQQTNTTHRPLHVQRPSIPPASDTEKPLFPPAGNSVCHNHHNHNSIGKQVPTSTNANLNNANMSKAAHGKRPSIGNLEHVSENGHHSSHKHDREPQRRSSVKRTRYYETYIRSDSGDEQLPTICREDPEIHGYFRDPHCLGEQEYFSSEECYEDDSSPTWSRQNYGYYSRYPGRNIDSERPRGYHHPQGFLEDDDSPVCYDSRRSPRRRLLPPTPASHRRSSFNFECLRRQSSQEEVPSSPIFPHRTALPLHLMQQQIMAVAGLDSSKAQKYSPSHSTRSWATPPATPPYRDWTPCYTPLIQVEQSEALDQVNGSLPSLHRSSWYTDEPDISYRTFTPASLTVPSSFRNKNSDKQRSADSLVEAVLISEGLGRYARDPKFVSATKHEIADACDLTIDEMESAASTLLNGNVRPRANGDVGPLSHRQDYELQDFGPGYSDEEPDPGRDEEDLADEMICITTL"}, "source": "patent US6372183B1", "about": "(priority 1991, dated 2002)", "molecular_target": "human neuronal calcium channel α1D, α2 and β subunits (Homo sapiens, UniProt Q01668)", "conditions": "13old cells, 50 mM KCl, estimated from dose-response curve", "data": [{"substance": "Bay K 8644 [BayK 8644]", "values": [{"measurement": "EC50", "setting": "read-out: EC50 for the potentiation of fluorescence response to KCl", "value": 4.4, "unit": "nM"}]}, {"substance": "cadmium", "values": [{"measurement": "IC50", "setting": "read-out: IC50 for inhibition of the fluorescence response to KCl", "value": 3000, "unit": "nM"}]}]}
